What was measured:
Type in all cases: cell-based
[1] = system: cumulus-enclosed oocytes (CEO); test: FSH induced resumption of meiosis and cumulus expansion of hypoxanthine arrested mouse oocytes cultured in vitro (22-hydroxycholesterol); set-up: key to Cumulus expansion: 0: No expansion, compact cumulus layer surrounding the oocyte; +: A slight cumulus expansion, the most peripheral cumulus cell looks a little fluffy; ++: good expansion of cumulus cell without a spherical cloud like expansion; +++: full cumulus expansion with a fluffy cloud like expansion with extended distance between the somatic cells; conditions: FSH 75 IU/L alone
Method: Immature female mice (B6D2-F1 strain C57B1/2J) were kept under controlled light and temperature conditions with free access to food and water. Ovarian stimulation was performed when the mice weighed 10–16 grams and consisted of an intra-peritoneal injection of Gonadoplex (Leo, Copenhagen, Denmark) containing 7.5 U/mouse. The animals were killed by cervical dislocation 44–48 h later. The media used for the culture of oocytes consisted of α-Minimum Essential Medium (α-MEM), with Earles Balanced Salt Solution (EBSS), containing 4 mM hypoxanthine, 3 mg/ml bovine serum albumin, 0.23 mM pyruvate, 2 mM glutamine (all Sigma, U.S.A) and 100 IU/ml penicillin, 100 ug/ml Streptomycin. This medium was termed “HX-medium”. A media similar to the above but without HX are termed “maturation-medium”. Oocytes were isolated in HX-medium under a stereo microscope by manual rupture of follicles using a pair of 5.5-gauge needles. Spherical oocytes with intact cumulus cells connection and displaying germinal vesicle were categorized as cumulus-enclosed oocytes (CEO). Oocytes were rinsed 3 times in fresh HX-medium. Prior to each experimental set-up, all oocytes from 10–15 mice were pooled. Only oocytes with a germinal vesicle present were used and distributed in separate wells of a 4-well dish (Nuncoln, Denmark) containing 1 ml of HX-medium. Each well contained 20–30 oocytes and was cultured at 37° C. in 100% humidity in air with 5% CO2. Each experiment was repeated at least 4 times. At the end of the culture period (i.e 24 h), oocytes with GV or GVBD, or polar body (PB) were counted using an inverted microscope with differential interference contrast equipment (Leica, German). […]
To the control medium FSH (Puregon, Organon, Oss, The Netherlands) 75 IU/L was added. To the medium containing FSH 75 IU/L, 22-hydroxycholesterol in the designated concentrations was added and all media were subjected to culture together with mouse oocytes.
Graduation of cumulus expansion: 0: No expansion, compact cumulus layer surrounding the oocyte; +: A slight cumulus expansion, the most peripheral cumulus cell looks a little fluffy; ++: good expansion of cumulus cell without a spherical cloud like expansion; +++: full cumulus expansion with a fluffy cloud like expansion with extended distance between the somatic cells.

[2] = system: cumulus enclosed mouse oocytes; test: FSH induced resumption of meiosis of mouse oocytes cultured in vitro (dbc-AMP control medium); conditions: FSH 75 IU/L alone in control medium (200 μM dbc-AMP), 22-24 h culture
Method: Immature female mice (B6D2-F1 strain C57B1/2J) were kept under controlled light and temperature conditions with free access to food and water. Ovarian stimulation was performed when the mice weighed 10–16 grams and consisted of an intra-peritoneal injection of Gonadoplex (Leo, Copenhagen, Denmark) containing 7.5 U/mouse. The animals were killed by cervical dislocation 44–48 h later. The media used for the culture of oocytes consisted of α-Minimum Essential Medium (α-MEM), with Earles Balanced Salt Solution (EBSS), 200 μM dibuturyl-cyclic-adenosine-mono-phosphate (dbc-AMP), 3 mg/ml Bovine Serum Albumin, 0,23 mM pyruvate, 2 mM glutamine, 100 IU/ml penicillin and 100 mg/ml streptomycin (i.e. control medium). The ovaries were recovered and oocytes isolated from the ovaries by puncturing individual follicles using a 25 gauge needle. The oocytes were washed 3 times in control medium before the start of each experiment. Cumulus enclosed oocytes were cultured separately in 4-well dishes (Nuncleon, Roskilde, Denmark), 0.4 ml medium in each well containing control medium or medium supplemented with ketoconazole in a 100% humidified atmosphere of 5% CO2 with 95% air at 37° C. […] By the end of the culture period, germinal vesicle breakdown (GVBD) was scored by examining the oocyte in an inverted microscope. The percentage of oocytes with GVBD per total number of oocytes (% GVBD) was calculated. […]

[3] = system: cumulus-enclosed oocytes (CEO); test: FSH induced resumption of meiosis of hypoxanthine arrested mouse oocytes cultured in vitro (ketoconazole); conditions: FSH 50 IU/L alone in HX-medium (4 mM hypoxanthine), 24 h
Method: Oocytes were obtained from immature mice (Kunming white mouse) weighing 14–16 g that were kept under controlled light and temperature conditions with free access to water. The mice received an intra peritoneal injection of 0.1 ml pregnant mare's serum gonadotrophin (PMSG, Sigma, New York, U.S.A) containing 10 IU PMSG. Forty-six hours later, the animals were killed by cervical dislocation. The ovaries were dissected out and placed in M199 culture medium (GIBCO, U.S.A) containing 4 mM hypoxanthine, 3 mg/ml bovine serum albumin, 0.23 mM pyruvate, 2 mM glutamine (all Sigma, U.S.A) and 100 IU/ml penicillin, 100 ug/ml Streptomycin. This medium was termed “HX-medium”. A media similar to the above but without HX are termed “maturation-medium”. Oocytes were isolated in HX-medium under a stereo microscope by manual rupture of follicles using a pair of 5.5-gauge needles. Spherical oocytes with intact cumulus cells connection and displaying germinal vesicle were categorized as cumulus-enclosed oocytes (CEO). […] At the end of the culture period (i.e 24 h), oocytes with GV or GVBD, or polar body (PB) were counted using an inverted microscope with differential interference contrast equipment (Leica, German). The percentage of oocytes with GVBD per total number of oocytes (% GVBD) and the percentage of oocytes with PB formation per total number of oocytes (% PB) were calculated. […]

[4] = with fetal calf serum in the medium
[5] = without fetal calf serum, HX-medium, 24 h

FSH: follicle stimulating hormone: Metrodin HP, Serono (Ex. 1); Sigma (Ex. 2); Puregon, Organon (Ex. 3)
% GVBD [1, 4]: 54%
% PB (PB/GVBD) [1, 4]: 56%
Cumulus expansion [1, 4]: +++
% GVBD [1, 5]: 55%
% PB (PB/GVBD) [1, 5]: 76%
% GVBD [2]: 31%
% PB (PB/GVBD) [2]: 66%
% GVBD [3]: 59%
% PB (PB/GVBD) [3]: 35%

— patent US7192768B2, “Synchronization of the cytoplasmatic and the nuclear maturation of oocytes in vitro” (Novo Nordisk A/S, priority 2001, dated 2007)
